Compound activity deposited in PubChem BioAssay by National Center for Advancing Translational Sciences (NCATS).
miR-21 reporter – miR-21 reporter, rising signal | HeLa miR-21 FLuc reporter, luciferase, 48 h | Potency, µM (doses to about 38.3 µM), inactives show at the top dose reporter change, positive = more light | 340,000 tested, under 10 active | AID 2288; active = well fitted rising curve with a large enough effect; inconclusive = small, poorly fitted or top-dose-only effect; inactive = no such curve, though single readings can be large or run the other way;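 note: % of control where 0% means no effect; miR-21 action dims this reporter so a rising signal means less miR-21 action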
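Compounds were titrated across several concentrations (up to approximately 40 uM) and incubated 48 hours with HeLa miR-21-FLuc reporter cells (miR-21 target sequence downstream of FLuc, endogenous miR-21). Readout was firefly luciferase luminescence after lytic detection reagent.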
ClpP mod – qHTS Assay for Activators of ClpP; 340,000 compounds, 1.9% hits; Potency, µM (series often up to 57.5 µM), inactives show at the top dose activity change, negative = active; purified B. subtilis ClpP, FRET peptide cleavage, 20 min; active = well fitted falling curve with a large enough effect; inconclusive = small, poorly fitted or top-dose-only effect; inactive = no such curve, though single readings can be large or run the other way; also: potency is read from the fitted curve at half-maximal effect; the source files actives as falling curves though it sought activators and does not explain the sign; nearly all actives have a fitted effect of over 65% in size
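Purified B. subtilis ClpP, 10 microg/mL final in Tris/HCl pH8 with KCl, BSA, glycerol and Tween-20, cleaved an Abz/nitrotyrosine-quenched decapeptide. Fluorescence (ex 320, em 430) was read at 0 and 20 min at room temperature. Delta was normalized to 5.8 microM ADEP and DMSO/no-enzyme controls.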
Nrf2 inh – inhibitors of Nrf2 signaling; A549 ARE-Fluc reporter, luciferase luminescence, 18-24 h; Potency, µM (top dose mostly 46 µM), inactives show at the highest dose activity change, negative = inhibition, actives largely listed as inhibitors; 360,000 compounds, 2.1% hits; also: potency is read from the fitted curve at half-maximal effect; % is scaled to controls: 0 for no effect and ±100 for the full control effect; nearly all actives have a fitted effect of over 60% in size
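Two sequential reads on A549 ARE_Fluc cells exposed to compound for 18-24 h: a CellTiter-Fluor fluorescence read for viability, then a luciferase luminescence read for Nrf2/ARE activity.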
TCR act – activates T cell receptor signaling | Potency, µM (top dose mostly 9.22 µM), without a hit: top-dose activation of IL-2 secretion, usual class: activators | primary human leukocytes, anti-CD3, IL-2 HTRF, 48 h | AID 504894 | 330,000 tested, under 10 active; also: % of control where 0% means no effect
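Readout: HTRF IL-2, Eu-cryptate/d2 antibody pair, 320nm excitation, 665nm emission. Stimulus: a-CD3 beads, no co-stimulation. Cells: primary human leukocytes. Exposure: 48 hr with compound.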
A549 viability – kills or reduces viability of A549 cells in Nrf2 counter-screen; 390,000 compounds, 0.16% hits; A549 ARE-Fluc cells, CellTiter-Fluor viability, 18-24 h; Potency, µM (titrated, usually from 46 µM), for the others: at the highest dose activity change, negative = cytotoxicity, most hits filed as inhibitors; also: potency is read from the fitted curve at half-maximal effect; % is scaled to controls: 0 for no effect and ±100 for the full control effect
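A549 ARE-Fluc cells in 5% FBS OPTI-MEM, 5000 cells/well, rested 2 h then exposed to compounds in concentration-response for 18-24 h at 37 °C. Viability by CellTiter-Fluor fluorescence (Ex 405/Em 525) after 30 min; luciferase luminescence (BugLite, 15 min, RT) read afterwards.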
Nrf2 activator – activates Nrf2 signaling | Potency, µM (series often up to 46.1 µM), for the others: top-dose activation, usual class: activators | AREc32 ARE-luciferase reporter (MCF7-derived line), luminescence, 24 h | AID 624171 | 410,000 compounds, 0.31% hits; also: potency is read from the fitted curve at half-maximal effect; % of control where 0% means no effect; nearly all actives have a fitted effect of over 65% in size
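Luminescent ARE reporter assay in AREc32_Fluc cells: overnight plating at 37 deg C, 24 hr compound incubation, Steady-Glo added, 30 min RT before reading.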
* marks the source's active call; other numbers are inactive results; u = inconclusive; x = not tested or not shown; [ ] = dose if it differs, or a comment. A selection: hits, their analogues and other compounds. The true share with any hit is near 3.7%. Unless noted, calls follow the shape of the dose curve; as a rule, active = well fitted curve in the direction sought with a large enough effect; inconclusive = small, poorly fitted or top-dose-only effect, or another doubt; inactive = no such curve, though single readings can be large; an effect the other way counts as inactive or inconclusive.

mol | Nrf2 inh | Nrf2 activator | ClpP mod | miR-21 reporter | TCR act | A549 viability
O=C1CCCN1c1ccc(S(=O)(=O)Nc2cccnc2)cc1 | -7% | -1% | x | -4% | 2% | 0%
Cc1ccc(NS(=O)(=O)c2ccc(N3CCCC3=O)cc2)cc1C | 15µM* | x | x | x | x | -6%
NCCCCNc1ncnc2ccc(-c3ccc4c(c3)OCO4)cc12 | 0% | x | x | x | x | 17%
Cc1cc2c(s1)c1cnn(Cc3cc(Cl)ccc3F)c(=O)c1n2C | 18% | x | x | x | x | 2%
CCc1cc2c(cc3c(=O)n(CCCC(=O)NCc4ccccc4Cl)nc(CC)n32)s1 | -9% | -1% | 0% | -13% | x | -11%
COc1ccc(NC(=S)N2CCC(Cc3ccccc3)CC2)cc1OC | u | 0% | 0% | -8% | 3% | 2%
COc1cccc(NC(=S)N2CCC(Cc3ccccc3)CC2)c1 | 18µM* | 0% | -2% | -6% | -11% | -1%
CCOc1ccc(NC(=O)CCNC(=O)Cn2ccc3ccccc3c2=O)cc1 | 4% | 0% | 32µM* | 6% | -1% | 0%
CCOc1ccccc1NC(=O)CCNC(=O)Cn1ccc2ccccc2c1=O | 1% | -1% | x | -1% | -7% | 7%
CCCOc1ccc(/C=C/C(=O)Nc2ccc([N+](=O)[O-])cc2)cc1 | 23µM* | 3% | -3% | 11% | 2% | -20%
CCCCOc1ccc(/C=C/C(=O)Nc2ccc([N+](=O)[O-])cc2C)cc1 | u | 0% | 2% | -4% | -2%[46.1 µM] | 0%
CC(C)Cn1nc(NS(=O)(=O)c2ccccc2)c2cc3ccccc3nc21 | 5% | 0% | -5% | -1% | 1% | -2%
CCCc1nc([N+](=O)[O-])c(S(=O)(=O)c2ccccc2)n1CC(C)C | 1% | 5.6µM* | x | u | -5% | -12%
O=C(Nc1ccc(F)cc1F)N1CCCN(c2ccc([N+](=O)[O-])cn2)CC1 | u | -1% | 1% | 8% | -3% | -18%
CC(C)(C)c1ccc(NC(=O)N2CCN(c3ccc([N+](=O)[O-])cn3)CC2)cc1 | 13µM* | 4% | x | -3% | 3% | -8%
COc1ccc(-c2noc(N3CCN(c4ccc(C)cc4)C(C)C3)n2)cc1OC (configuration not stated) | -51% | -1% | 0% | 0% | x | 8%
CN(CCOc1ccccc1)C(=O)C1CCN(C(=O)c2ccc(F)cc2)CC1 | 11% | 0% | 22µM* | 0% | -5% | 0%
Cc1ccc2c(/C=C/c3c[nH]c4ccccc34)ccnc2c1C | x | x | -11% | x | x | x
CN(CC(=O)Nc1cccc(F)c1)CC(=O)N1CCCCC1 | 16% | 0% | 0% | x | -4% | 8%
COc1ccc(OC)c(CNC(=O)c2ccc(-c3nc(CSc4ccccc4)c(C)o3)cc2)c1 | -26% | 0% | 18µM* | 4% | x | u
CCc1ccc(CNC(=O)c2ccc(-c3nc(CSc4ccc(C)cc4)c(C)o3)cc2)cc1 | u | -1% | -5% | -3% | x | -4%
Cc1ccc(SCc2nc(-c3ccc(C(=O)NCc4ccccc4Cl)cc3)oc2C)cc1 | 15µM* | -1% | 5% | 10% | x | 3%
Cc1ccc(NC(=S)NC(=O)C2CCCCC2)c(Br)c1 | u | 6% | x | x | -7%[46.1 µM] | 5%
CCC(=O)Nc1cccc(C(=O)/C=C/c2ccc(F)cc2)c1 | 23µM* | -3% | -4% | u | 4% | u
CC(=O)Nc1cccc(C(=O)/C=C/c2ccc(C)cc2)c1 | -21% | 1% | -1% | u | -5%[46.1 µM] | -1%
O=C(Nc1ccccc1F)c1ccc2sc([C@H]3C[C@H](O)[C@@H](CO)O3)nc2c1 | x | 0% | 1% | x | x | x
COc1ccc(OCC(O)CN2CCCCCC2)cc1 (configuration not stated) | 3% | 0% | 2% | -1% | 7%[46.1 µM] | 0%

Four compounds from above, showing only Nrf2 activator and ClpP mod:
molecule	Nrf2 activator	ClpP mod
COc1ccc(OCC(O)CN2CCCCCC2)cc1 (configuration not stated)	0%	2%
CCc1ccc(CNC(=O)c2ccc(-c3nc(CSc4ccc(C)cc4)c(C)o3)cc2)cc1	-1%	-5%
CN(CCOc1ccccc1)C(=O)C1CCN(C(=O)c2ccc(F)cc2)CC1	0%	22µM*
COc1ccc(-c2noc(N3CCN(c4ccc(C)cc4)C(C)C3)n2)cc1OC (configuration not stated)	-1%	0%

Quoted from the listing:
In miR-21 reporter, `COc1ccc(OC)c(CNC(=O)c2ccc(-c3nc(CSc4ccccc4)c(C)o3)cc2)c1` has the entry 4%
In TCR act, `CN(CC(=O)Nc1cccc(F)c1)CC(=O)N1CCCCC1` has the entry -4%
